Laboratory results reported in patent US11427548B2 (Arvinas Operations, Inc., priority 2015, dated 2022).

Chains of the proteins cited; added tags and fusions are not shown. Lines headed by an entry give the natural chain unless they say otherwise; changes in a name come on top.
UniProt P10275: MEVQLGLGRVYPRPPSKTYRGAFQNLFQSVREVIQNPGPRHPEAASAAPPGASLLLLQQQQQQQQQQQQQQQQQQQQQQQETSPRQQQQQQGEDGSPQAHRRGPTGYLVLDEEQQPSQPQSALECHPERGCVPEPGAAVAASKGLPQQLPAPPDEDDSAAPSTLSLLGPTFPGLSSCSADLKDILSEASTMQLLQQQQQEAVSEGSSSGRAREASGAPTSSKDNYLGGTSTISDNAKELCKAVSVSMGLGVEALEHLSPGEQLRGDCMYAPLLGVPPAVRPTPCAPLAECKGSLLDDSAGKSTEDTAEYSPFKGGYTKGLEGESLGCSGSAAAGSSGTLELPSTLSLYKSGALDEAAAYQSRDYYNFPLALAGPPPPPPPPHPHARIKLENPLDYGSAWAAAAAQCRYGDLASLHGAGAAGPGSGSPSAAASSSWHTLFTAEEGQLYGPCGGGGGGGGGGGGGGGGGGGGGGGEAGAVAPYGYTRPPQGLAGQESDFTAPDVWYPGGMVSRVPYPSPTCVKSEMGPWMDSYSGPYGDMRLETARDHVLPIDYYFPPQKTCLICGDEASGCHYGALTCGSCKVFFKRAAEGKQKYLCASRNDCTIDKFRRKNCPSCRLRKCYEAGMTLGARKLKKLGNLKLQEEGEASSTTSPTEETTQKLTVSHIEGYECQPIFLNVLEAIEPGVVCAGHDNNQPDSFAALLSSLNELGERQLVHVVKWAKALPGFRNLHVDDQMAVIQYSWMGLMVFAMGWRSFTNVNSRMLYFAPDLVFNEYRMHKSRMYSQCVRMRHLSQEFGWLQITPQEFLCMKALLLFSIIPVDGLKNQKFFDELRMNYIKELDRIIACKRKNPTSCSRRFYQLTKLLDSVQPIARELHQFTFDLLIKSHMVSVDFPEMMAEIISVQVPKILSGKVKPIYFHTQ

Target: T1, Androgen Receptor (Homo sapiens, UniProt P10275)
T1 construct: endogenous in cells; host or cells: VCaP cells
Assay: Androgen Receptor ELISA assay (PathScan AR ELISA) in VCaP cells: AR degradation, Dmax and DC50
Type: cell-based
Settings: Table 36
Description: 1. Androgen Receptor ELISA Assay.
The protocols used with VCaP cells are described below. The androgen receptor ELISA assay was performed using PathScan AR ELISA (Cell Signaling Catalog #12850) according to the following assay steps:
VCaP cells are seeded at 30,000 cells/well at a volume of 200 μL/well in VCaP assay medium [Phenol red free RPMI (Gibco Cat #11835-030); 5% Charcoal Stripped (Dextran treated) FBS (Omega Scientific, Cat #FB-04); Pen/Strep Life Technologies (Gibco Cat #: 10378-016); 0.1 nM R1881 (Sigma, Cat #R0908) is added upon the start of the assay, not during initial plating of the cells) in Corning 3904 plates. The cells are grown for a minimum of 3 days. […]
Add 100 μL/well AR Elisa; cover and shake, 37 C for 2 hrs; dump, tap, wash 4×200 μL ELISA wash buffer; add 100 μL/well mouse AR detection Ab; cover and shake, 37 C for 1 hr; dump, tap, wash 4×200 μL ELISA wash buffer; add 100 μL/well anti-mouse—HRP conjugated Ab (comes with the kit); cover and shake, 37 C for 30 min; allow TMB reagent to come to room temperature; dump, tap, wash 4×200 μL Elisa wash buffer; tap; add 100 μL TMB, shake 5 min—while watching color. […] Add 100 μL Stop solution; shake and read at 450 nm.

N-((1r,3R)-3-(3-chloro- 4-cyanophenoxy)- 2,2,4,4- tetramethylcyclobutyl)- 6-((2S,6R)-4-(2-(2- (((S)-1-((2S,4R)-4- hydroxy-2-(((R)-2- hydroxy-1-(4-(4- methylthiazol-5-yl) phenyl)ethyl) carbamoyl)pyrrolidin- 1-yl)-3,3-dimethyl-1- oxobutan-2-yl)amino)- 2-oxoethoxy)ethyl)- 2,6-dimethylpiperazin- 1-yl)nicotinamide [Example 844]
DC50: < 50 nM | VCaP Dmax (%): ++++ (71% ≤ Dmax)
